Yeast mating assay B: variants of the scFv Ab-14

Source: Li et al. 2023 (doi:10.1038/s41467-023-39022-2), MIT Lincoln Laboratory and A-Alpha Bio; data file from the FLAb repository.

Target peptide (SARS-CoV-2 spike, HR2 region): PDVDLGDISGINAS

Parent scFv Ab-14: VH joined to VL by three GGGGS repeats. Changes lie in the light chain CDRs alone.
VH: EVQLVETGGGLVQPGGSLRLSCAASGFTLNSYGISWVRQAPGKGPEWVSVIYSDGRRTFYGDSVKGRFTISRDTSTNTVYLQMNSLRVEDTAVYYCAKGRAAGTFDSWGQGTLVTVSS
VL: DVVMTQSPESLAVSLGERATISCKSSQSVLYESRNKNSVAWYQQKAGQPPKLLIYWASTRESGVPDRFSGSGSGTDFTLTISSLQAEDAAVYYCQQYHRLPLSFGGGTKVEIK

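These sequences belong to a second round, designed from the earlier measurements on random variants of the parent. Several design methods are mixed in this list. AlphaSeq pools MATa yeast showing the antibodies with MATalpha yeast showing the peptide. The frequency of each diploid, read from paired DNA barcodes, reflects how well the two displayed proteins bind. Scores were corrected for input abundance and mapped to Kd with protein pairs of known affinity run in the same pool. The assay was run in six technical replicates.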

Positions count from residue 1 of the parent VL; Q27I puts I in place of Q. Variants here have at most six changes. Affinities are written as log10 Kd with Kd in nM; a lower number is a better binder. Where no diploid with the target was found in that replicate, the entry reads "nd": below detection, most likely a poor binder, though not proof of it. A sequence measured in both rounds can read differently, since the two assays cover different ranges.

The variant Q27I/V29Y/R34A/W56N gave -0.02, -0.04, -0.15, 0.04, -0.07, 0.28. The variant S25L/S26R/V29T/K36I/A40V gave nd, nd, nd, nd, nd, 3.98. The variant Q27T/S38G/S58T/L102W gave 1.70, nd, nd, nd, nd, nd. For S26Q/V29Q/L30E/W56H/E61L/S62D, the assay gave 0.57, 0.39, 0.46, 0.34, 0.45, 0.48. For Q27F/L30R/S62Y, the assay gave nd, nd, 2.16, nd, 2.83, nd. The variant S25L/S26P/E32Q/W56N gave -0.09, -0.38, -0.25, -0.55, -0.22, -0.08. The variant R34M/W56S/S62E/R99K/S103D showed 1.97, 1.75, 2.53, 2.28, 1.71, 2.10.

The variant S25M/V29W/W56N showed 0.39, 0.04, 0.23, 0.05, 0.02, 0.23. The variant S25L/V29Y/L30E/W56S/T59Q/S62H showed -0.05, -0.06, 0.00, -0.26, -0.30, -0.11. The variant E32S/W56T showed nd, nd, nd, nd, nd, nd. With V29Q/S33N/W56S/T59Q the result was 0.55, 0.12, 0.55, 0.20, 0.34, 0.37. The variant S25F/N37W/W56N gave 0.25, 0.08, 0.22, -0.24, -0.03, 0.05. For S25V/V29N/W56D, the assay gave 0.11, -0.39, -0.16, -0.49, -0.04, 0.00. For W56R/H98A, the assay gave nd, nd, nd, nd, 2.12, nd.

With S25L/K36V/W56D the result was -0.35, -0.40, -0.37, -0.41, -0.30, -0.26. The variant S25L/S26E/L30G/S33Q/W56E/S62D showed 1.52, 0.31, 1.25, 0.39, 0.31, 0.53. For V29F/K36V/W56Q, the assay gave 1.00, 0.74, 0.66, 0.91, 0.49, 0.77. For S25L/S26Q/L30E/W56G, the assay gave -0.05, -0.13, -0.34, -0.24, -0.33, -0.24. The variant S25L/V29M/K36W/W56N/T59Q gave -0.07, -0.16, -0.39, -0.42, -0.29, -0.01. The variant V29F/Y31Q/S62E/Q95F/Y97V gave nd, nd, nd, nd, nd, nd. The variant Y31V/W56D/T59L/H98F gave -0.26, -0.29, -0.29, -0.57, -0.22, -0.30.

For S25I/L30M/W56N, the assay gave -0.27, -0.38, -0.29, -0.23, -0.63, -0.19. With S25L/L30W/W56A the result was 0.35, -0.20, -0.19, -0.59, -0.18, -0.06. With S25V/V29M/W56N/E61M the result was 0.34, -0.16, -0.14, -0.07, 0.18, 0.21. For S25L/S26A/Q27M/V29T, the assay gave 2.33, 3.49, 2.21, 1.41, 1.71, 1.56. The variant L30G/Y31M/K36A/W56D gave 0.47, 0.08, 0.38, 0.12, 0.27, 0.74. With S25L/S26Q/S28Q/V29W/W56S the result was nd, nd, nd, nd, nd, nd. With W56A/E61S/Y97H the result was 1.99, 1.80, 3.24, 3.14, 2.24, 1.46.

The variant S25V/W56E/Q96S showed 0.09, -0.25, -0.52, -0.47, -0.17, -0.28. For S25A/S26R/V29W/W56G/S103I, the assay gave -0.56, -0.52, -0.53, -0.70, -0.43, -0.51. With Q27I/R34H/W56N/E61M the result was 0.97, 0.74, 0.64, 0.52, 0.74, 0.80. For S25L/S26T/W56N, the assay gave -0.34, -0.41, -0.44, -0.38, -0.42, -0.29. The variant S25L/S26P/V29H/S38A/W56N gave 0.05, -0.14, -0.09, -0.26, -0.23, -0.09. For N35L/S38N, the assay gave nd, 1.14, 1.77, nd, nd, nd. With S33V/K36H the result was nd, nd, nd, nd, nd, nd.

For S25L/S26D/V29H/W56G, the assay gave 0.91, 0.88, 1.30, 0.80, 1.09, 0.89. With S25F/Q27I/V29G/N35M/W56E the result was 0.16, 0.16, 0.04, 0.06, 0.09, 0.47. The variant Y31H/E61G showed nd, nd, 0.56, nd, nd, nd. For S25V/S26L/S33E/W56H/S62D, the assay gave -0.05, 0.14, 0.21, 0.11, 0.12, 0.11. The variant S26Q/V29D/R34T/K36P/S103I showed nd, 1.92, nd, nd, nd, nd. For S26P/V29Y/N35M/R60L, the assay gave nd, nd, nd, nd, nd, nd. For S25F/S33L/N35T/W56N/T59E/E61I, the assay gave 0.94, 0.81, 0.83, 0.75, 0.55, 0.72.

With S25T/S26D/S33Q/R34Q the result was 1.45, 1.71, 1.33, 1.05, 1.01, 1.83. The variant K24E/L100A gave nd, nd, nd, nd, nd, nd.

The parent sequence was in this pool as ten entries: three were never detected, three once, and four in most replicates, with averages from 0.34 to 2.37. As a blank, each scFv also met three strains without target: over all light chain designs, 4% of these pairings were detected, typically at 2.64 and seldom below 1.59. The authors' rule: three or more of the six replicates give a measured affinity, fewer mean a poor binder.